Assay results published in ChEMBL document CHEMBL1687730, “New high-throughput screening assay to reveal similarities and differences in inhibitory sensitivities of multidrug ATP-binding cassette transporters” (Antimicrob Agents Chemother, 2009).

Protein sequences, listed by entry. Tags and fused reporters are not part of them. Lines headed by an entry give the natural chain unless they say otherwise; changes in a name come on top.
UniProt P33302: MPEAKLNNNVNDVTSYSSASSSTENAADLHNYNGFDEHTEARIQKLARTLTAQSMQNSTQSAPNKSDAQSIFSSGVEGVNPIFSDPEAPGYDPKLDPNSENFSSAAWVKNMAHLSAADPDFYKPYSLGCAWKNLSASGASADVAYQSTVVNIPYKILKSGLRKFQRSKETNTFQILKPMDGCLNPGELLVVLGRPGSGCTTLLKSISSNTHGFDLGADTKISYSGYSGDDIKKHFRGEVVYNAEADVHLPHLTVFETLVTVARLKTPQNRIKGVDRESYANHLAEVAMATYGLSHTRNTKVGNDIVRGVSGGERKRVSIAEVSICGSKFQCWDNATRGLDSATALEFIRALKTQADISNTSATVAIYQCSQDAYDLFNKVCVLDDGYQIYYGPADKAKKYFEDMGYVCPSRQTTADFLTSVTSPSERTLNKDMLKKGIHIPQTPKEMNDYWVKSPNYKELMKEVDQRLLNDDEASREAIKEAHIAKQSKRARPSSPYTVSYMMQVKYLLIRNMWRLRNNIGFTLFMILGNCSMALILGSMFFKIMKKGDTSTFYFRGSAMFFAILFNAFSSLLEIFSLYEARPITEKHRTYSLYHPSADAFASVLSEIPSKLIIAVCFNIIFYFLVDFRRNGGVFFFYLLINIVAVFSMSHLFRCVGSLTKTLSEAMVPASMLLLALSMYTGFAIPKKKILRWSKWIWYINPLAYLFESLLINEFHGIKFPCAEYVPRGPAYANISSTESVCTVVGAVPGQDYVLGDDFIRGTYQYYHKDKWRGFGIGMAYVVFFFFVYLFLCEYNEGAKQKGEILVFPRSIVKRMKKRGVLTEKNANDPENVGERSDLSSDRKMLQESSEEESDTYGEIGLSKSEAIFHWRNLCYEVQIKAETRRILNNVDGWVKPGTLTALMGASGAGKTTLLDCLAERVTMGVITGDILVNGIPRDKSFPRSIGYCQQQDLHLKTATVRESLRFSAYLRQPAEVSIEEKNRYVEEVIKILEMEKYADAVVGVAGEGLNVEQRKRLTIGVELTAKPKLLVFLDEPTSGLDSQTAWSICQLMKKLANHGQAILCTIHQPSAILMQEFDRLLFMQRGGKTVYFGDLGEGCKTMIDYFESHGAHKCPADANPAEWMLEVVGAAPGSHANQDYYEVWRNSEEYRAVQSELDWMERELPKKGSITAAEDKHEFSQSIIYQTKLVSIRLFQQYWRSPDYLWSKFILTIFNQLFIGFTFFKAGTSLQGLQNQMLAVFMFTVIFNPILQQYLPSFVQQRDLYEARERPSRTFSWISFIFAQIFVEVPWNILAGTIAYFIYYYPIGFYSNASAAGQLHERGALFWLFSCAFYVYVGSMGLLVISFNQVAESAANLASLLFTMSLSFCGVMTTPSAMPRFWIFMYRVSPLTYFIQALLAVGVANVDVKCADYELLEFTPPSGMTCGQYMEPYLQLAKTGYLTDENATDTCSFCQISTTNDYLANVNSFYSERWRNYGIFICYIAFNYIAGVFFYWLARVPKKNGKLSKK

Molecular target: Pleiotropic ABC efflux transporter of multiple drugs (Saccharomyces cerevisiae S288c, UniProt P33302)
Assay: Inhibition of Pdr5p-mediated rhodamine 6G transport in Saccharomyces cerevisiae MKPDR5h plasma membrane by spectrofluorometric assay

CSc1ccc2c(c1)N(CCC1CCCCN1C)c1ccccc1S2 (stereo unspecified) [THIORIDAZINE]
IC50: 1300 nM
